Measurements: paper PMC10866054 (Journal of Enzyme Inhibition and Medicinal Chemistry, 2024)

The chains behind the UniProt entries cited, without tags or fusion partners. Where a name states a change or a piece, a line headed by the entry shows the natural chain unless it says otherwise.
UniProt P48736: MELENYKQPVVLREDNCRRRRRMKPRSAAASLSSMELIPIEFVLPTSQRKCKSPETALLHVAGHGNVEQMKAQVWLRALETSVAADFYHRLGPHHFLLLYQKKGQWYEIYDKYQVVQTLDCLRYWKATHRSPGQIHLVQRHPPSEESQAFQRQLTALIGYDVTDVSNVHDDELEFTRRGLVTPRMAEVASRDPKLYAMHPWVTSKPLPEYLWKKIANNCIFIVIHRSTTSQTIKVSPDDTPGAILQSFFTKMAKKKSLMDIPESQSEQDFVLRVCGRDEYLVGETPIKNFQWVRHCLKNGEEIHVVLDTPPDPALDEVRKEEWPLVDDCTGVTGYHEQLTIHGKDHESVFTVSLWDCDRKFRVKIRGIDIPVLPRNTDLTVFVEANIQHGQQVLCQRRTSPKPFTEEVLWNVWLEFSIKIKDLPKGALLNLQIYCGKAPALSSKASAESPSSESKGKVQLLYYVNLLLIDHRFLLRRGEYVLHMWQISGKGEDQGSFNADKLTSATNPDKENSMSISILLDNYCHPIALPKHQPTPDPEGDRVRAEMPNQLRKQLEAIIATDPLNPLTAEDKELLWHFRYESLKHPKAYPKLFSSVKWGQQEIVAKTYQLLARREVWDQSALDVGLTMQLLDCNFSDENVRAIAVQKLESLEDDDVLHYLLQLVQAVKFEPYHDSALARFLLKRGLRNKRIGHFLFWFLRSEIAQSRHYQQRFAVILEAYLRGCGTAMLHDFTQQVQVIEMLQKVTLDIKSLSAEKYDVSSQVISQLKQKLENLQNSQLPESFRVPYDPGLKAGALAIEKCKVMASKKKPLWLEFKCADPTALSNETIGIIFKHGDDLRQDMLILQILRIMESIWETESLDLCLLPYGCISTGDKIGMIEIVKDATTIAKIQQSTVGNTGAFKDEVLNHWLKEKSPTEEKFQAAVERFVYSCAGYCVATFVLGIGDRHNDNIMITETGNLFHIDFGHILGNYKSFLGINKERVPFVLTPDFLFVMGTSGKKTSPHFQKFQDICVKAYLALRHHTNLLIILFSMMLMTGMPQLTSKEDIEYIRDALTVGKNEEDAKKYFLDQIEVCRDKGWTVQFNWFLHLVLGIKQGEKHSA

Target: PI3Kγ (Homo sapiens, UniProt P48736)
Assay: PI3K isoform ELISA kit, PI3Kγ
Format: biochemical

IC50: 6.76 ± 0.55 µM
SMILES: O=c1cc(N2CCOCC2)oc2c(-c3ccccc3)cccc12 [LY294002, reference compound]
